PINK1 modulator – changes PINK1 expression; AID 624263; Potency, µM (top dose mostly 76.6 µM), actives largely listed as activators; actives 0.2% (n = 410,000); PINK1 immunofluorescence, high-content cytometry, 24 h; active = well fitted activation curve with a large enough effect; inconclusive = small, poorly fitted or top-dose-only effect; cell line not stated here; also: nearly all actives have a fitted effect of over 65% in size
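PINK1 protein, normally rapidly degraded, was detected by immunofluorescence after 24 hour compound treatment of a stable cell line. Titration data (5 concentrations) came from laser-scanning cytometry, with CCCP-treated wells as controls.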
p53 reactivation – re-activators of mutant p53; actives 0.063% (n = 320,000); Potency, µM (titrated, usually from 92.2 µM), most hits filed as activators; H1299 p53-A138V BP100-luciferase reporter, luminescence, 24 h; also: nearly all actives have a fitted effect of over 45% in size
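H1299 (p53-null), stable ts p53-A138V + BP100-Luc; 1000 cells/well, Opti-MEM/10% FBS; cpd 4 pt, 1:5; 24 h, 37 deg C, 5% CO2; detection reagent 10 min RT; luminescence.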
miR-21 reporter – miR-21 reporter, rising signal | HeLa miR-21 FLuc reporter, luciferase, 48 h | Potency, µM (doses to about 38.3 µM) | 340,000 tested, under 10 active | AID 2288; active = well fitted rising curve with a large enough effect; inconclusive = small, poorly fitted or top-dose-only effect; inactive = no such curve, though single readings can be large or run the other way;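 note: miR-21 action dims this reporter so a rising signal means less miR-21 action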
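Compounds were titrated across several concentrations (up to approximately 40 uM) and incubated 48 hours with HeLa miR-21-FLuc reporter cells (miR-21 target sequence downstream of FLuc, endogenous miR-21). Readout was firefly luciferase luminescence after lytic detection reagent.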
Epigenetic derep – derepresses silenced GFP reporter in murine cells; murine LDR cells, GFP reporter derepression, 30 h; Potency, µM (top dose mostly 53.9 µM), actives largely listed as activators; actives 0.2% (n = 280,000); also: nearly all actives have a fitted effect of over 60% in size
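Murine LDR cells carrying a silenced, genomically integrated CMV-driven GFP reporter were exposed to compound for 30 hours at 37 C. After PBS washes, GFP-positive cells (20–120 um objects) were counted by laser-scanning microplate cytometry.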
IL-2 act – activators of IL-2; AID 652025; IL-2 activation reporter assay, cell-based qHTS; stimulated with anti-CD3/CD4/CD28 beads; in transgenic mouse T cells; actives 0.065% (n = 360,000); activation, % (series mostly up to about 46 µM); in the data active = activation above about 50%; inconclusive = mostly about 30% to 49%
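Screening format: compound pinned onto unstimulated transgenic mouse T cells, 60 min incubation, then anti-CD3/anti-CD4/anti-CD28 bead stimulation for 18 hours at 37 degrees C, followed by EGFP and DsRed detection.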
uPA surface inh – blocks generation of uPA at the cell surface. cell surface uPA generation assay, qHTS. Potency, µM (highest dose often 38.3 µM), most hits filed as inhibitors. actives 0.31% (n = 330,000). AID 540303; active = well fitted inhibition curve with a large enough effect; inconclusive = small, poorly fitted or top-dose-only effect; inactive = no such curve, though single readings can be large or run the other way; tested in mouse RAW 264.7 cells; also: nearly all actives have a fitted effect of over 55% in size
Hits are given with their value; – = inactive; ? = inconclusive; · = not tested or not shown. Only some compounds are listed: those with a hit (about 0.62% of all), similar ones and a draw of the others. Unless noted, calls follow the shape of the dose curve; as a rule, active = well fitted curve in the direction sought with a large enough effect; inconclusive = small, poorly fitted or top-dose-only effect, or another doubt; inactive = no such curve, though single readings can be large; an effect the other way counts as inactive or inconclusive.

SMILES	PINK1 modulator	p53 reactivation	miR-21 reporter	Epigenetic derep	IL-2 act	uPA surface inh
O=C(N/N=C/c1cccc2nccnc12)c1ccccc1O	–	?	–	–	–	–
O=C(N/N=C/c1cccc2cccnc12)c1ccccc1O	–	?	?	–	–	5.01µM
CN(C)c1ccc(-c2noc(-c3ccccc3O)n2)cc1	–	7.08µM	–	–	–	–
c1ccc(-c2noc(-c3ccccc3-c3ccccc3)n2)cc1	–	–	–	–	–	–
CCN1CCS/C1=C/C=C/C1=[N+](CC)CCS1	15.8µM	–	?	–	–	–
CCN1CCS/C1=C\C=C\C1=[N+](CC)CCS1	14.1µM	–	?	–	–	?
CCOC(=O)c1c(/N=C/N(C)C)sc(/C=N/Nc2ccccc2)c1-c1ccc(Cl)cc1	–	–	–	11.2µM	–	–
O=Cc1cc(N=Nc2ccccc2Cl)ccc1O	?	?	–	–	–	8.91µM
COC(=O)C1CCN(C(=O)c2cc(-c3ccc(Cl)s3)nc3ccccc23)CC1	–	–	·	·	–	1.78µM
CCc1ccc2oc(-c3ccc(OC)cc3)cc(=Nc3c(C)n(C)n(-c4ccccc4)c3=O)c2c1	?	–	–	–	–	8.91µM
O=C(OCCF)N1CCN(/[N+]([O-])=N/Oc2ccc([N+](=O)[O-])cc2[N+](=O)[O-])CC1	–	·	·	·	·	·
Cc1cccc[n+]1CCCCCCCCCC[n+]1ccccc1C	–	–	–	–	–	–
CCCCCCCC[n+]1cccc2c3ccccc3ccc21	25.1µM	–	?	–	–	0.891µM
CCCCCCCCCC[n+]1cccc2c3ccccc3ccc21	?	–	–	–	–	0.708µM
C/C(NC(=O)c1ccccc1F)=C1\C(=O)C[C@@H]2[C@H]1C2(C)C	–	12.6µM	–	–	–	–
C/C(NC(=O)c1cccc(F)c1)=C1/C(=O)C[C@@H]2[C@H]1C2(C)C	–	?	–	–	–	–
Cc1c(C(=O)NCc2ccco2)cnn1-c1ncc2c(n1)-c1ccccc1CC2	–	·	·	·	·	·
O=C(Nc1nc(-c2ccccn2)cs1)c1ccc(F)c(S(=O)(=O)N2CCOCC2)c1	–	?	·	·	–	3.98µM
O=C(Nc1nc(-c2ccccn2)cs1)c1cc(S(=O)(=O)N2CCOCC2)ccc1F	–	?	·	·	–	10µM
Cc1ccc(C(=O)Nc2nc(-c3ccccn3)cs2)cc1S(=O)(=O)N1CCOCC1	–	?	·	·	–	?
COc1ccccc1N1CCN(c2nc(CNC(=O)c3ccccc3F)nc3ccccc23)CC1	–	·	·	·	·	·
CC(C)c1c(C(=O)NCC2(N3CCCCC3)CCCC2)cnn1-c1nccc(-c2ccco2)n1	–	·	·	·	·	·
O=C(c1ccccc1-n1cccn1)N1CCOc2ccc(CN3CCOCC3)cc2C1	–	·	·	·	·	·
COc1ccc2nc(NC(=O)c3cccc(N4C(=O)CCC4=O)c3)sc2c1	–	?	·	·	–	4.47µM
CCOc1ccc2nc(NC(=O)c3cccc(N4C(=O)CCC4=O)c3)sc2c1	–	·	·	·	–	·
SMILES	PINK1 modulator	p53 reactivation	miR-21 reporter	Epigenetic derep	IL-2 act	uPA surface inh
CCOc1ccc(CCNC(=O)c2cccc3c2C(=O)N(CCOC)C3)cc1OCC	–	–	–	·	55.3	–
Cc1nc(N2CCOCC2)[nH]c(=O)c1CCC(C)C	–	–	–	–	–	·
Cc1nc(N2CCc3ccccc3C2)[nH]c(=O)c1CCC(C)C	11.2µM	–	–	–	–	–
CCn1c2ccccc2c2cc(NC(=O)c3ccc(Br)o3)ccc21	–	–	–	14.1µM	–	–
CCn1c2ccccc2c2cc(NC(=O)c3cc(OC)cc(OC)c3)ccc21	–	–	–	–	–	2.24µM
CCn1c2ccccc2c2cc(NC(=O)c3coc(=O)c(Br)c3)ccc21	·	–	–	–	·	·
Cc1nc2ccccc2nc1CN1CCOc2ccc(C3(O)CCN(c4ccccc4F)CC3)cc2C1	–	·	·	·	·	·
Cc1cc(C)c2c3c(c(-c4ccccc4)n2n1)c(=O)n(C)c(=O)n3C	–	·	·	·	–	–
Cc1cc(-c2ccccc2)c2c3c(c(-c4ccccc4)n2n1)c(=O)n(C)c(=O)n3C	?	–	–	?	70.2	–
CCC(=O)NC(c1ccccc1OC)c1ccc2cccnc2c1O (stereo not drawn)	–	?	?	3.55µM	–	–

Bioassay records from PubChem BioAssay.
